# High-throughput results as filed in PubChem BioAssay.
# SIRT5 block: blocks human SIRT5 desuccinylation of peptide. inhibition, % at 15 µM. hit rate 1.1% among 330,000. Q9NXA8. AID 652115. Purified SirT5, succinyl-peptide AMC, trypsin-coupled fluorescence; in the data active means inhibition above about 15%
# S100A4 inh HTS: blocks human S100A4 binding to myosin IIA peptide | AID 652163 | inhibition, % at 10.7 µM | S100A4/TAMRA-MyoIIA peptide fluorescence polarization | P26447 | hit rate 0.14% among 360,000;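 active means mean inhibition of at least 70% across replicates, with every replicate also reaching that level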
#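 Compound dosing: one dose per compound; test system: human S100A4 monomer with TAMRA-labelled myosin IIA peptide; probe or stimulus: TAMRA-labelled myosin IIA heavy-chain peptide probe, 5 nM; medium: HEPES buffer with Ca2+, pH 7.2; schedule: 5 min incubation before reading; benchmarks: neutral control DMSO, positive control TFP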
# PDI inh: inhibitors of human protein disulfide isomerase. P07237. PDI insulin aggregation turbidity, A650, 90 min. inhibition, % at 10 µM. hit rate 0.052% among 350,000;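 active means mean inhibition across replicates of 30% or more, whatever share of single replicates reach that level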
# FGF22 binding: shifts melting point of recombinant human FGF22 | AID 651658 | Q9HCT0 | activity (Tm shift, normalised), % at 9.99 µM | recombinant FGF22 thermal shift, SYPRO orange fluorescence; percent of sucrose octasulfate shift, DMSO zero | hit rate 1.5% among 340,000;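 active means mean Tm shift, scaled 0 neutral to 100 positive control, at about 1.3% or above, every replicate too, limit read from the data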
# ERp5 block: blocks human ERp5 reductase activity on insulin; Q15084; ERp5 insulin aggregation, absorbance 650 nm, 90 min; inhibition, % at 9.99 µM; hit rate 0.05% among 350,000; AID 651711;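 active means mean replicate inhibition above about 25%, with every replicate also reaching it, limit read from the data, passing the limit was not always enough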
# Yeast UUG start: yeast start codon fidelity modulation | S. cerevisiae UUG-firefly luciferase reporter, luminescence/redox ratio | activity score, % at 18.7 µM | hit rate 0.13% among 350,000 | AID 602363;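 active means replicate mean at a twofold rise or more, about +100% in these data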;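 further: firefly luciferase made from a UUG start codon reports start codon fidelity; reporter light over untreated wells divided by growth signal over untreated wells; some hits fall short of that in this replicate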
# * marks the source's active call; other numbers are inactive results; . = no result; ! = a repeat was not active. Sampled rows, rich in hits. Any-hit rate of the full collection: about 2.2%.
# Under each structure: SIRT5 block, S100A4 inh HTS, FGF22 binding, ERp5 block, Yeast UUG start, PDI inh
C[C@@H]1CN([C@@H](C)CO)C(=O)c2c(c3ccccc3n2C)-c2ccccc2CO[C@@H]1CN(C)Cc1ccc(-c2ccccc2)cc1
    17*, 5, ., -2, ., .
C[C@H](CO)N1C[C@H](C)[C@@H](CN(C)C(=O)Cc2ccccc2)OCc2ccccc2-c2c(n(C)c3ccccc23)C1=O
    18*, -4, 0, 9, ., .
CC(C)[C@@H](C)NC(=O)N(C)C[C@@H]1OCc2ccccc2-c2c(n(C)c3ccccc23)C(=O)N([C@@H](C)CO)C[C@@H]1C
    19*, -3, 0, -3, 3, .
C[C@@H]1CN([C@@H](C)CO)C(=O)c2c(c3ccccc3n2C)-c2ccccc2CO[C@H]1CN(C)Cc1ccc(-c2ccccc2)cc1
    4, 4, 0, ., ., .
C[C@@H]1CN([C@@H](C)CO)C(=O)c2c(c3ccccc3n2C)-c2ccccc2CO[C@@H]1CN(C)C(=O)[C@H](C)c1ccccc1
    20*, -31, 0, -5, ., .
C[C@H](CO)N1C[C@H](C)[C@H](CN(C)CC2CC2)OCc2ccccc2-c2c(n(C)c3ccccc23)C1=O
    9, 90*, 0, -1, 12, .
C[C@H]1CN([C@@H](C)CO)C(=O)c2c(c3ccccc3n2C)-c2ccccc2CO[C@@H]1CN(C)Cc1ccc(-c2ccccc2)cc1
    6, 7, ., 6, ., .
C[C@H]1CN([C@@H](C)CO)C(=O)c2c(c3ccccc3n2C)-c2ccccc2CO[C@H]1CN(C)Cc1ccccc1
    19*, -27, ., 2, ., .
CN(CC(=O)Nc1ccc(F)cc1)C(=O)CSc1nc2ncc(Cl)cc2[nH]1
    1, -2, 43*, 0, ., 0
COc1cccc(C(=O)N2[C@H](COCc3ccccc3)C=CS2(=O)=O)c1
    -1, 1, 0, -1, -3, .
CC(C)(C)c1ccc(C(=O)N2[C@H](COCc3ccccc3)C=CS2(=O)=O)cc1
    20*, 1, 0, 2, -3, .
CCCNC(=O)N(C)C[C@@H]1Oc2ncc(C3=CCCC3)cc2C(=O)N([C@@H](C)CO)C[C@H]1C
    1, 0, 0, 1, -3, .
CCC(C)(C)n1nnnc1C(c1cc2cc(C)ccc2[nH]c1=O)N1CCCc2ccccc21 (stereo unspecified)
    17*, -1, 0, -1, 13, 9
COc1ccc(Cn2nnnc2C(c2cc3cc(C)ccc3[nH]c2=O)N2CCN(C)CC2)cc1 (stereo unspecified)
    -3, -6, 44*, 10, ., -1
COc1ccc(Cn2nnnc2C(c2cc3cccc(C)c3[nH]c2=O)N2CCN(C)CC2)cc1 (stereo unspecified)
    -2, -3, 0, -3, ., -7
O=C1CSC(c2cccc([N+](=O)[O-])c2)N1c1ccc(O)cc1 (stereo unspecified)
    -1, 7, 0, 6, ., -3
CC(=O)Nc1ccc(N2C(=O)CSC2c2cccc([N+](=O)[O-])c2)cc1 (stereo unspecified)
    -1, 3, 44*, -3, ., 9
C[C@@H]1CN([C@H](C)CO)C(=O)c2cccc(NS(=O)(=O)c3cccs3)c2O[C@H]1CN(C)Cc1ccccc1
    26*!, 9, 0, 4, -23, -1
COc1ccc(S(=O)(=O)N(C)C[C@@H]2Oc3c(NS(C)(=O)=O)cccc3C(=O)N([C@H](C)CO)C[C@H]2C)cc1
    -6, 4, 0, -13, 5, .
C[C@H]1CN([C@@H](C)CO)C(=O)c2cccc(NS(C)(=O)=O)c2O[C@@H]1CN(C)Cc1ccccc1
    3, 8, 0, 1, -5, .

# 5 structures out of the list, ordered by SMILES length, rising:
# Under each structure: SIRT5 block, S100A4 inh HTS, FGF22 binding, ERp5 block, Yeast UUG start, PDI inh
CN(CC(=O)Nc1ccc(F)cc1)C(=O)CSc1nc2ncc(Cl)cc2[nH]1
    1, -2, 43*, 0, ., 0
CCC(C)(C)n1nnnc1C(c1cc2cc(C)ccc2[nH]c1=O)N1CCCc2ccccc21 (stereo unspecified)
    17*, -1, 0, -1, 13, 9
COc1ccc(Cn2nnnc2C(c2cc3cc(C)ccc3[nH]c2=O)N2CCN(C)CC2)cc1 (stereo unspecified)
    -3, -6, 44*, 10, ., -1
C[C@H](CO)N1C[C@H](C)[C@H](CN(C)CC2CC2)OCc2ccccc2-c2c(n(C)c3ccccc23)C1=O
    9, 90*, 0, -1, 12, .
C[C@H]1CN([C@@H](C)CO)C(=O)c2c(c3ccccc3n2C)-c2ccccc2CO[C@H]1CN(C)Cc1ccccc1
    19*, -27, ., 2, ., .

# (continued)
# Under each structure: SIRT5 block, S100A4 inh HTS, FGF22 binding, ERp5 block, Yeast UUG start, PDI inh
COc1ccc(S(=O)(=O)N(C)C[C@@H]2Oc3c(NS(C)(=O)=O)cccc3C(=O)N([C@@H](C)CO)C[C@H]2C)cc1
    20*!, -13, 0, 8, 1, -1
C[C@@H]1CN([C@@H](C)CO)C(=O)c2cccc(NS(=O)(=O)c3cccs3)c2O[C@H]1CN(C)Cc1ccccc1
    -5, -1, 1, -2, -5, .
C[C@H]1CN([C@@H](C)CO)C(=O)c2cccc(NS(C)(=O)=O)c2O[C@H]1CN(C)Cc1ccccc1
    15*, 2, 0, 4, -10, .
Cn1cnc(S(=O)(=O)N[C@H]2C=C[C@@H](CC(=O)NCC3CC3)O[C@@H]2CO)c1
    1, -9, 0, 4, 0, .
Nc1nc(-c2ccc3c(c2)NC(=O)CO3)cs1
    ., ., ., ., -10, 20
O=C1COc2ccc(-c3n[nH]c(=O)c4ccccc34)cc2N1
    0, 5, 43*, -5, ., -4
Cc1oc(-c2ccccc2Cl)nc1CSCC(=O)O
    -3, 186*, 0, 4, -8, -4
Cc1oc(-c2ccccc2Cl)nc1CSCC(=O)NC1CC1
    ., ., ., ., -14, -6
Cc1cnc(C(=O)OCC(=O)Nc2cccc(S(=O)(=O)N3CCCCC3)c2)cn1
    28*, 5, 0, -7, ., -17
NS(=O)(=O)c1cccc(NC(=O)COC(=O)Cc2ccc(S(=O)(=O)N3CCCCC3)s2)c1
    2, -12, 43*, 6, ., -2
Cn1cnc(CCNC(=O)C[C@@H]2CC[C@H]3[C@@H](COC[C@@H](O)CN3C(=O)Nc3ccc(F)cc3)O2)c1
    -2, -1, 0, 1, -11, .
CCCNC(=O)N(C)C[C@@H]1Oc2cc(C#CCC(C)C)ccc2S(=O)(=O)N([C@@H](C)CO)C[C@H]1C
    2, 6, 0, -2, 9, .
O=C(Oc1ccc(Br)cc1)c1n[nH]c(=O)c2ccccc12
    1, 0, 43*, 1, ., 1
O=C(NNC(=O)c1n[nH]c(=O)c2ccccc12)c1ccc(Br)cc1
    -7, -1, 0, 3, -14, -6
C/C(=N\S(=O)(=O)c1ccc(C)cc1)NC(=S)Nc1ccccc1
    -3, -2, 44*, 11, ., -1
COc1ccc(NC(=S)NC(=NS(=O)(=O)c2ccc(Cl)cc2)c2ccccc2)cc1
    ., 2, 0, 0, -16, -17
COc1ccc(NC(=S)N/C(=N/S(=O)(=O)c2ccc(C)cc2)c2ccccc2)cc1
    1, -5, 43*, 5, -20, 1
CO[C@@H]1CN(C)C(=O)c2cc(NC(=O)c3nc4ccccc4s3)ccc2OC[C@@H](C)N(Cc2ccccc2)C[C@H]1C
    ., 2, 0, -6, -3, .
CC(=O)Nc1ccc(S(=O)(=O)N2CCN(c3cnn(C)c(=O)c3Cl)CC2)cc1
    -4, -3, 43*, 1, -21, -1
CC(=O)Nc1ccc(S(=O)(=O)N2CCN(c3cc(C)ccc3C)CC2)cc1
    -1, 7, 0, 2, 1, .
CCCC(=O)N1CC2(CN(C(=O)CC3CC3)C2)c2c(n(C)c3cc(OC)ccc23)[C@H]1CO
    2, 7, 0, 8, ., .
